From article PMC8071193, “Dual-Target Compounds against Type 2 Diabetes Mellitus: Proof of Concept for Sodium Dependent Glucose Transporter (SGLT) and Glycogen Phosphorylase (GP) Inhibitors” (Pharmaceuticals, 2021) come the findings set out here.

This experiment has as its target T1, SGLT2 (Homo sapiens, UniProt P31639).
T1 construct: host or cells: TSA201 (Human Embryonal Kidney) cells, lentiviral transduction, puromycin selection
T1 sequence (P31639 1-672): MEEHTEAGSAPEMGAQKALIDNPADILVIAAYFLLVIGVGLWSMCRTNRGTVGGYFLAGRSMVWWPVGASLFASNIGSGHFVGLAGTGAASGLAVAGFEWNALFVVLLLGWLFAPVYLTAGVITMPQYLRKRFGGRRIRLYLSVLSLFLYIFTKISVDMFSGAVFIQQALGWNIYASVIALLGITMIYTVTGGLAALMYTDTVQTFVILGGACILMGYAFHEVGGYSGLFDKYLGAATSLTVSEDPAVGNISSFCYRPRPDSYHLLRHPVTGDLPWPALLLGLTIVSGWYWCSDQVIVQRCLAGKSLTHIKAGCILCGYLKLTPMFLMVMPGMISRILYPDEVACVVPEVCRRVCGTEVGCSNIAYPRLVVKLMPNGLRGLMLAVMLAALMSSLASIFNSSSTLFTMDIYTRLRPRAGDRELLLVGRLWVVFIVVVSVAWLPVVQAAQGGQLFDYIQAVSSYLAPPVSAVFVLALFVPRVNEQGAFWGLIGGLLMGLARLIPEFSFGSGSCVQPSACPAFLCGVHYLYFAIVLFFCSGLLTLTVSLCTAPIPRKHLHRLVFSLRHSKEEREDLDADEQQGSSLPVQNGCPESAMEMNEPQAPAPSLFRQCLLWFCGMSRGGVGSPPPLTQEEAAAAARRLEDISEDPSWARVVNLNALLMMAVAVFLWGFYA
As to the kind of experiment: SGLT2 inhibition, 2-NBDG glucose uptake in SGLT2-overexpressing TSA201 cells. The class given is cell-based. To be noted: SGLT2-transfected TSA201 cells, presence vs absence of phlorizin, p < 0.05.

With `O=C(CCc1ccc(O)cc1)c1c(O)cc(O)cc1O[C@@H]1O[C@H](CO)[C@@H](O)[C@H](O)[C@H]1O` [compound 1, phlorizin, reference compound], the “glucose uptake (2-NBDG)” value is reported as “significantly decreased glucose uptake”.
